# In PubChem BioAssay AID602396 (The Scripps Research Institute Molecular Screening Center, 2012):
# By UniProt entry, the sequences of proteins in these tests, tags left out.
# UniProt O00482, whole entry: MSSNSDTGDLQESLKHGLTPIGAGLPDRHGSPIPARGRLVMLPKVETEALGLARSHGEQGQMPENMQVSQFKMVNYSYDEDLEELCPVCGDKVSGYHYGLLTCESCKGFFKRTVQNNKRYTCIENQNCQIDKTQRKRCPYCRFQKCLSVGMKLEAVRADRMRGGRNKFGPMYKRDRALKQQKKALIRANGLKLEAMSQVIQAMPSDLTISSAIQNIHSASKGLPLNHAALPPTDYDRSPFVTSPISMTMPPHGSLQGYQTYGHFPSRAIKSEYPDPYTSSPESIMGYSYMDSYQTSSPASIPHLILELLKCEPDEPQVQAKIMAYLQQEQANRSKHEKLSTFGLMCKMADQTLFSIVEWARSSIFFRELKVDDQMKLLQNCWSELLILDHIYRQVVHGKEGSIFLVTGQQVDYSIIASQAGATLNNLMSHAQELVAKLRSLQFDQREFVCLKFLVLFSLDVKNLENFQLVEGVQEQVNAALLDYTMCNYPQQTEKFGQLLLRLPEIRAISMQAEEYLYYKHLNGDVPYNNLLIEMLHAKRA
# The entries are a selection whose mix differs from that of the whole data set. Active and inactive are the calls of the source.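 Rule for the calls: active = inhibition above the mean inhibition of all tested compounds plus 3 SD (cut at about 73% in these data); inactive = the rest.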
# Target: Nuclear receptor subfamily 5 group A member 2 (Homo sapiens) (UniProt O00482)
# Assay: LRH-1 (NR5A2) inverse agonists, primary screen, cell-based, luminescence, HEK293T, StAR-luciferase reporter (AID 602396);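 note: 0% = DMSO wells and 100% = reporter-only cells lacking LRH-1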
# Conditions: LRH-1 transfected, 24 h, at 3.6 µM, stronger effect = higher value
row,SMILES,inhibition
1,CCCOc1ccc(C(=O)NCC2(N(C)C)CCCCC2)cc1,inactive: 3.28%
2,O=c1[nH]c2ccccc2n1C1CCN(C(c2cc3ccccc3o2)c2nnnn2C2CCCC2)CC1 (configuration not stated),inactive: -25.5%
3,O=C(O)C1(Nc2ccccc2)CCN(Cc2ccccc2)CC1,inactive: 4.08%
4,NN(c1ccccc1)C1CCN(CCc2ccccc2)CC1,inactive: -7.94%
5,CC(C)(C)OC(=O)N1CCC(Nc2ccccc2)CC1,inactive: -9.98%
6,CN1CCC(Nc2ccc(F)c(Cl)c2)CC1,inactive: 4.12%
7,CCOc1ncccc1C(=O)NCC1(N2CCOCC2)CCCCC1,inactive: 5.16%
8,CN1CCC(Nc2ccc(Cl)cc2)CC1,inactive: 7.86%
9,CCC(CO)(C(=O)OC1CN2CCC1CC2)c1ccccc1 (configuration not stated),inactive: -11.5%
10,COc1cccc(C(c2nnnn2C2CCCC2)N2CCC(n3c(=O)[nH]c4ccccc43)CC2)c1OC (configuration not stated),inactive: 15.1%
11,COc1cc(OC)cc(C(=O)NCC2(N3CCOCC3)CCCCC2)c1,inactive: -6.38%
12,COc1cccc(C(=O)N(c2cc(C)cc(C)c2)C2CCN(C(=O)OC(C)(C)C)CC2)c1,inactive: -20.1%
13,Cc1ccc(NC2(C#N)CCN(Cc3ccccc3)CC2)cc1,inactive: -9.27%
14,Fc1ccccc1NC1CCN(Cc2ccccc2)CC1,inactive: -15.8%
15,Cc1ccc(C(=O)NCC2(N3CCCCC3)CCCCC2)o1,inactive: -26.1%
16,O=c1[nH]c2ccccc2n1C1CCN(C(c2ccnc3ccccc23)c2nnnn2C2CCCCC2)CC1 (configuration not stated),inactive: -3.39%
17,COc1cc(OC)cc(C(=O)NCC2(N3CCCCC3)CCCCC2)c1,inactive: -11.3%
18,CCC(c1nnnn1C1CCCCC1)N1CCC(n2c(=O)[nH]c3ccccc32)CC1 (configuration not stated),inactive: -0.44%
19,CC(=O)N(c1ccccc1)C1CCNCC1,inactive: 21.6%
20,COc1cccc(C(c2nnnn2C2CCCCC2)N2CCC(n3c(=O)[nH]c4ccccc43)CC2)c1OC (configuration not stated),inactive: -9.12%
21,Cn1c(=O)[nH]cc(N(CCCl)CCCl)c1=O,inactive: 7.13%
22,CN(C)c1ccc(C(=O)NCC2(N3CCCCC3)CCCCC2)cc1,inactive: -40.4%
23,O=C(NCC1(N2CCCCC2)CCCCC1)c1ccco1,inactive: 1.59%
24,CC(C)(C)n1nnnc1C(c1ccnc2ccccc12)N1CCC(n2c(=O)[nH]c3ccccc32)CC1 (configuration not stated),inactive: -7.7%
25,COc1ccc(C(c2nnnn2C2CCCCC2)N2CCC(n3c(=O)[nH]c4ccccc43)CC2)cc1 (configuration not stated),inactive: -2.01%
26,CCN1CCC(Nc2cccc(F)c2)CC1,inactive: -4.05%
27,Cc1ccccc1NC1(C#N)CCN(Cc2ccccc2)CC1,inactive: -3.51%
